Legend:
Type in all cases: functional, cell-based
NCI-H1299 [1] = test: Inhibition of cell invasion in human H1299 cells after 16 hrs by matrigel assay
NCI-H460 = test: Inhibition of cell invasion in human H460 cells after 16 hrs by matrigel assay
NCI-H1299 [2] = test: Inhibition of cell migration in human H1299 cells after 16 hrs by Boyden chamber analysis
A549 = test: Inhibition of cell invasion in human A549 cells after 16 hrs by matrigel assay

Measured: inhibition

O=C(O)c1cccc(Nc2cc(N3CCCCCC3)c3noc4c3c2C(=O)c2ccccc2-4)c1
active: NCI-H1299 [1] Dose-dependent effect | NCI-H460 = Dose-dependent effect | NCI-H1299 [2] Dose-dependent effect | A549 = Dose-dependent effect

From ChEMBL document CHEMBL2203137, “Design, synthesis, biochemical studies, cellular characterization, and structure-based computational studies of small molecules targeting the urokinase receptor” (Bioorg Med Chem, 2012)
